The values that follow come from ChEMBL document CHEMBL4007441, “Novel Design of Heptad Amphiphiles To Enhance Cell Selectivity, Salt Resistance, Antibiofilm Properties and Their Membrane-Disruptive Mechanism” (J Med Chem, 2017).

This assay has as its system Escherichia coli. The settings on record: ATCC 25922.

Usually MIC stands for the lowest concentration that inhibits growth of the organism. Low values mean a more susceptible organism, high ones a less susceptible organism. Regarding GENTAMICIN, the minimal inhibitory concentration (MIC) came out at 0.5 µg/mL.
